target: Muscarinic acetylcholine receptor M1 (Rattus norvegicus) (UniProt P08482); test: M1 inhibitors against agonist EC80 response – cell-based, calcium fluorescence, dose response (AID 859); settings: M1-expressing cells, antagonist mode vs EC80

By UniProt entry, the sequences of proteins in these tests, tags left out.
UniProt P08482, whole entry: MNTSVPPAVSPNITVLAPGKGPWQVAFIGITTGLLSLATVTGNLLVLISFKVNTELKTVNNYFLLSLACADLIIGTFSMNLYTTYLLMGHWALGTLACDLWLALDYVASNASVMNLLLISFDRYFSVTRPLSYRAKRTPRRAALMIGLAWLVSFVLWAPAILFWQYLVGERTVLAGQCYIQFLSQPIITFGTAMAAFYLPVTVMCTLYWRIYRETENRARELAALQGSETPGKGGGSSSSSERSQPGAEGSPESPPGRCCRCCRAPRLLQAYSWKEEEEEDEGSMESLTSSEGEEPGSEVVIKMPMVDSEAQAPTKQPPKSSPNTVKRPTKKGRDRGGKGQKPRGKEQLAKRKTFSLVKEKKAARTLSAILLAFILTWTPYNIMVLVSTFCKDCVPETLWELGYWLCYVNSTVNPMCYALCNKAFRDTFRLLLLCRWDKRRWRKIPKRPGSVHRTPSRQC

Structure (SMILES)	IC50
O=C(OC1CN2CCC1CC2)C12CC3CC(CC(C3)C1)C2 (stereo not drawn)	35.9 nM
CCN(CC)CC(O)COC(=O)C(O)(c1ccccc1)C1CCCCC1 (stereo not drawn)	125 nM
O=C(OC1CN2CCC1CC2)c1cccc(Cl)c1 (stereo not drawn)	2100 nM

Source: PubChem BioAssay AID859 (Vanderbilt High Throughput Screening Facility, 2007)
